Measured values reported in ChEMBL document CHEMBL1921714, “Discovery of aminobenzyloxyarylamides as κ opioid receptor selective antagonists: application to preclinical development of a κ opioid receptor antagonist receptor occupancy tracer” (J Med Chem, 2011).

By UniProt entry, the sequences of proteins in these tests, tags left out.
UniProt P41143, whole entry: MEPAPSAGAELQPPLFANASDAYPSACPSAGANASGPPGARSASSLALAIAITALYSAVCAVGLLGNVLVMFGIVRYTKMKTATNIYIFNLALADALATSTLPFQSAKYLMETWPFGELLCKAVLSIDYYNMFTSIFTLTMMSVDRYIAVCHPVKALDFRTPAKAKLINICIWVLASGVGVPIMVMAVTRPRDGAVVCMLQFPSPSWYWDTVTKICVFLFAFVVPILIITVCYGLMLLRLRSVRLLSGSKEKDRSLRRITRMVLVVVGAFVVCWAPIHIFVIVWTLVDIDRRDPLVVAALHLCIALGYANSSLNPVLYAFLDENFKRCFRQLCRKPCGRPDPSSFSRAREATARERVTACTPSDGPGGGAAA
UniProt P35372, whole entry: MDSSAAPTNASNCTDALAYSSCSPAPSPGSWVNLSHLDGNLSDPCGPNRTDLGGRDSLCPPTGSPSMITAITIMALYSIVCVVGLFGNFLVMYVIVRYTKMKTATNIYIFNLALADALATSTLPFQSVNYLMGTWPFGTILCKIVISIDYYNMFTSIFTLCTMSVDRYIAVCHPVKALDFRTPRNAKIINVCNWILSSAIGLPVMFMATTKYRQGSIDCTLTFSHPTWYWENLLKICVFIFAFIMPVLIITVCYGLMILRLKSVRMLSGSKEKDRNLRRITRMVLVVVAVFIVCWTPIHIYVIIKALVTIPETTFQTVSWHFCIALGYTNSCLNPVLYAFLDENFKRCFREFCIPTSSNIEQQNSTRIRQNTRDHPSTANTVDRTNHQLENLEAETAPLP

Experiments:
[1] = molecular target: T1, Delta-type opioid receptor (Homo sapiens, UniProt P41143); experiment: Antagonist activity at human opioid delta receptor expressed in HEK293 cells assessed as inhibition of DPDPE-induced [35S]GTP-gamma-S binding after 4 hrs by scintillation counting; type: functional, cell-based
Mu-type opioid receptor [2] = molecular target: T2, Mu-type opioid receptor (Homo sapiens, UniProt P35372); experiment: Displacement of [3H]diprenorphine from human opioid mu receptor expressed in CHO cells after 120 mins by scintillation counting; type: cell-based
Method in brief: (§1)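 11-point curves, 0.01 nM–1 μM final. 120 min at 22 °C, then filtration and scintillation counting. Nonspecific binding set by 10 μM naltrexone. Four-parameter IC50; Ki by Cheng–Prusoff.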

[3] = molecular target: T1, Delta-type opioid receptor; experiment: Displacement of [3H]diprenorphine from human opioid delta receptor expressed in HEK293 cells after 120 mins by scintillation counting; type: cell-based; method in brief: as §1
Mu-type opioid receptor [4] = molecular target: T2, Mu-type opioid receptor; experiment: Antagonist activity at human opioid mu receptor expressed in CHO cells assessed as inhibition of DAMGO-induced [35S]GTP-gamma-S binding after 4 hrs by scintillation counting; type: functional, cell-based

**Q.** With CC(C)[C@@H](CN1CC[C@@](C)(c2cccc(O)c2)[C@@H](C)C1)NC(=O)[C@H]1Cc2ccc(O)cc2CN1 [JDTIC] as the compound, how does the Kb [1] read?
**A.** 168 nM

**Q.** What about the Ki (Mu-type opioid receptor [2]) of the same compound?
**A.** 11.5 nM

**Q.** And the Ki [3]?
**A.** 188 nM

**Q.** What about the Kb (Mu-type opioid receptor [4]) of the same compound?
**A.** 6.58 nM
